Measurements reported in ChEMBL document CHEMBL1128221 (J Med Chem, 1995).

How the values were obtained:
[1] = test system: LoVo; assay: Cytotoxicity against colorectal tumor cell line LoVo 1 hour after incubation.; assay type: functional, cell-based, Homo sapiens
In short: (§1)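 LoVo colorectal cells (2.5 × 10^3/well) were exposed to a range of prodrug or parent drug concentrations for 1 h, then washed. The cells were grown a further 3 days at 37 °C, fixed, and stained with sulforhodamine B to measure cellular protein. Treated wells were compared with untreated controls to give IC50. The ratio is prodrug IC50 over drug IC50.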

[2] = Half life was reported; assay type: ADME
In short: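 Hydrolysis of the chloroethyl mustard groups was measured in phosphate buffer, pH 7.4, at 37 °C. Products were separated by HPLC on a 25 cm ODS column. t1/2 was calculated with a standard kinetic program. The method was not applied to bromo, iodo or mesyl mustards.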

[3] = test system: LoVo; assay: Ratio of IC50 (prodrug)/IC50 (drug); assay type: functional, Homo sapiens; in short: as §1

| SMILES | IC50 [1] [nM] | T1/2 [2] [min] | Ratio [3] |
| --- | --- | --- | --- |
| Nc1ccc(N(CCCl)CCCl)c(Cl)c1 | 1780 | 1.1 | 89.9 |
| Oc1ccc(N(CCCl)CCCl)c(F)c1 | 2550 | 5.6 | 21 |
| Oc1ccc(N(CCI)CCI)c(F)c1 | 740 | – | – |
| Cc1cc(O)ccc1N(CCCl)CCCl | 750 | 0.6 | 154 |
| Nc1ccc(N(CCCl)CCCl)c(F)c1 | 2560 | 2.2 | > 195 |
| Oc1ccc(N(CCCl)CCCl)cc1Cl | 7310 | 12 | 11.9 |
| N#Cc1cc(N)ccc1N(CCCl)CCCl | 9750 | 18 | 51.3 |
| Cc1cc(N(CCCl)CCCl)ccc1O | 2250 | 4 | 194 |
| Nc1ccc(N(CCBr)CCBr)c(F)c1 | 4920 | – | – |
| Oc1ccc(N(CCBr)CCBr)c(F)c1 | 1340 | – | – |
| Oc1ccc(N(CCCl)CCCl)c2c1CCCC2 | 490 | 0.9 | 14.7 |
| Oc1ccc(N(CCI)CCI)cc1 | 340 | – | – |
| CC(C)c1cc(O)ccc1N(CCCl)CCCl | 1120 | 0.7 | 32.8 |
| Oc1ccc(N(CCBr)CCBr)cc1 | 400 | – | 23.5 |
